# Data as given in publication PMC2671563, “Identification of Human S100A9 as a Novel Target for Treatment of Autoimmune Disease via Binding to Quinoline-3-Carboxamides” (PLoS Biology, 2009).
# T1: hS100A9 (Homo sapiens, UniProt P06702)
# T1 construct: made in house; host or cells: Escherichia coli (or purified from granulocytes)
# T1 sequence (P06702 1-114): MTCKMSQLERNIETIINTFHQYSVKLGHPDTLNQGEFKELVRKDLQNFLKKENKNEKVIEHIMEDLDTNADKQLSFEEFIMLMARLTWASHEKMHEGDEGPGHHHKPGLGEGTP
# What was measured:
# hS100A9 = biological target: T1, hS100A9; test: SPR: analytes injected over immobilised hS100A9; settings: 100 nM analyte, 1:1 model with mass transfer; read-out: KD, binding to immobilised hS100A9
# Method: The SPR analysis was carried out with the Biacore 3000 system (GE Healthcare). Sensor chips, amine coupling kit, immobilization and running buffers, and regeneration solutions were obtained from GE Healthcare. Working solutions of all reagents used for Biacore analysis were prepared in 0.01 M Hepes, 0.15 M NaCl (pH 7.4) containing 0.005% v/v Surfactant P-20 (HBS-P; GE Healthcare) by buffer exchange on Fast Protein Desalting Micro-Spin Columns from Pierce. ABR-215757 was immobilised onto a CM5 chip through an amino-linker (ABR-224649). Other reagents (i.e., RAGE, TLR4/MD2, and various antibodies) were immobilised to the aimed density using random amine coupling chemistry. Activity of ligands after immobilisation was tested by injecting specific antibodies (unpublished data). In some experiments, S100A9 was immobilized either by random amine coupling or with a known orientation (i.e., by sulhydryl group conjugation to the only cysteine in S100A9 at position 3).
# Supplementary file pbio.1000097.sg004.pdf: Figure S4 Binding of hS100A9 to hRAGE/Fc and hTLR4/MD2 Is Not Due to hFc or hMD2 (A) 100 nM RAGE/Fc or Fc was injected over hS100A9 immobilized via the SH-group of the only cysteine in position 3 (left panel). (B) Left: 100 nM TLR4/MD2 or MD2 injected over amino-coupled hS100A9. […] Fab 43/8 was injected at 50–200 nM to verify activity of immobilized hS100A9 (right). […]
# [1] = biological target: T2, recombinant human RAGE/Fc (human, UniProt Q15109 23-342); test: SPR; 100 nM RAGE/Fc or Fc injected over hS100A9 immobilised via the SH-group of the only cysteine in position 3; fit to a 1:1 model with mass transfer; settings: both partners purified
# T2 construct: RAGE (receptor for advanced glycation end products), human; human IgG1 Fc was used as the control for the Fc part; also called hRAGE; rhRAGE/Fc; source: bought: R&D Systems (carrier-free recombinant)
Kd (hS100A9),Kd [1],Molecule
3.4 nM,,RAGE: carrier-free recombinant human RAGE/Fc
,3.4 nM,"human S100A9 (natural protein, UniProt P06702 1-114, looked up, S100A9, human; called homodimeric; also called hS100A9; homodimeric S100A9; source: either produced recombinantly in Escherichia coli or purified from granulocytes) MTCKMSQLERNIETIINTFHQYSVKLGHPDTLNQGEFKELVRKDLQNFLKKENKNEKVIEHIMEDLDTNADKQLSFEEFIMLMARLTWASHEKMHEGDEGPGHHHKPGLGEGTP"
